## scFv variants of Ab-91 (heavy chain) against a SARS-CoV-2 spike peptide

Data: MIT Lincoln Laboratory AlphaSeq set, Engelhart et al. 2022, doi:10.1038/s41597-022-01779-4, as distributed in FLAb.

All variants were tested on one target, the spike HR2 peptide PDVDLGDISGINAS (SARS-CoV-2).

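Phage display of a naive human antibody library on the peptide gave the parent. Variants in AAYL51 differ from the parent at up to three CDR positions; double and triple changes were sampled at random. Affinity was read by AlphaSeq, a pooled yeast mating assay with surface-displayed partners. Binding brings cells together so that they mate, and sequencing counts the barcode pairs among the diploids. Each replicate has its own calibration line, from reference interactions of the BCL2 family. There are three technical replicates.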

Each scFv is VL, a 15-residue (Gly4Ser)3 linker, VH, as in the parent Ab-91, and differs from it in the CDRs of the heavy chain only.
VL: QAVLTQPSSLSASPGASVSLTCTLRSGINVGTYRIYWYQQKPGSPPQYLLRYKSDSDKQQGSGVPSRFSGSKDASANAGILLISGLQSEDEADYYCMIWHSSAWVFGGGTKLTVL
VH: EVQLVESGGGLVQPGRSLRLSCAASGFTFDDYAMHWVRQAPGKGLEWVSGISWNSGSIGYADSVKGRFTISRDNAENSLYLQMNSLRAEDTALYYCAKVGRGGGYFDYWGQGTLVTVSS

Positions count from residue 1 of the parent VH; F27C puts C in place of F.
The Kd shown is the geometric mean over detected replicates; a lower Kd is a better binder.
A pair that was not seen in any replicate is written "nd"; this usually means weak binding, but a binder can also be missed.
Empty control strains, which show no peptide, gave a signal in 21% of pairings with library AAYL51; the median was 34 µM and 95% of these signals were weaker than 1.8 µM. No background was subtracted. The control count says in how many pairings with the empty strains this scFv gave a signal.

| apparent Kd | detected | empty controls | changes |
|---|---|---|---|
| 38 µM | 1/3 | 3/9 | F27C+M34W+G104S |
| 4.6 µM | 2/3 | 5/9 | G56M+Y60D+Y108C |
| nd | 0/3 | 0/9 | G50R+F106A |
| 51 nM | 3/3 | 1/9 | D62Q+D107K |
| nd | 0/3 | 0/9 | D30M+G50R+G103F |
| 120 nM | 1/3 | 0/9 | A33D+V99G+R101M |
| 140 µM | 1/3 | 4/9 | F29H+H35V+G56R |
| nd | 0/3 | 3/9 | S52C+I58M+V64W |
| 130 nM | 3/3 | 0/9 | D62M+K65R+Y108T |
| nd | 0/3 | 0/9 | S52R+D107Y+Y108F |
| 220 µM | 3/3 | 6/9 | Y32G+W53F+V99M |
| 250 nM | 3/3 | 3/9 | D31M+W53L+G56F |
| 47 µM | 2/3 | 9/9 | W53G+G59L+V99A |
| 72 µM | 2/3 | 5/9 | M34D+G104I+F106I |
| 1.1 µM | 1/3 | 0/9 | A61T+K65A+G102Y |
| 64 µM | 1/3 | 5/9 | H35N+G56D+Y105N |
| nd | 0/3 | 1/9 | D31P+M34S+W53H |
| 38 µM | 1/3 | 2/9 | F29K+V64G+V99P |
| 240 µM | 3/3 | 7/9 | G104W+D107S |
| 5.7 nM | 3/3 | 3/9 | W53T+I58M |
| nd | 0/3 | 0/9 | D30V+H35E+S52I |
| nd | 0/3 | 0/9 | G50H+I51M+S63L |
| 65 nM | 3/3 | 1/9 | I58R+K65G+Y105F |
| nd | 0/3 | 0/9 | F29K+N54I+V99T |
| 320 nM | 3/3 | 2/9 | S55A+G56T |
| nd | 0/3 | 0/9 | A61P+V99Y+Y105H |
| nd | 0/3 | 0/9 | F29G+V99F+D107W |
| nd | 0/3 | 5/9 | H35Q+G59F+G102D |
| 87 µM | 1/3 | 3/9 | N54A+S55R+S63Q |
| nd | 0/3 | 0/9 | N54T+G59Y+K65S |
| 63 µM | 1/3 | 1/9 | G26C+F29D+W53F |
| 640 µM | 1/3 | 1/9 | S55V+Y60T+V99P |
| 5.0 µM | 2/3 | 0/9 | F27Q+S52E+D107P |
| 36 µM | 3/3 | 1/9 | G26Q+K65Y+G100H |
| nd | 0/3 | 1/9 | G50L+A61R+G100P |
| 20 µM | 1/3 | 3/9 | R101K+F106P+D107K |
| nd | 0/3 | 1/9 | F27H+N54G+V64N |
| 140 nM | 3/3 | 5/9 | T28M+Y108P |
| 1.0 µM | 1/3 | 0/9 | I58P+Y60F |
| 24 µM | 1/3 | 3/9 | D30V+Y60R+Y108K |
| nd | 0/3 | 1/9 | S52V+S57H+Y105T |
| nd | 0/3 | 0/9 | D30F+D62K+V99A |
| 2.4 µM | 3/3 | 3/9 | N54V+I58T+D62R |
| nd | 0/3 | 0/9 | H35Q+N54V+Y60A |
| 100 µM | 1/3 | 1/9 | T28R+N54M+A61K |
| 720 nM | 1/3 | 0/9 | F27K+H35Q+V64M |
| 500 nM | 3/3 | 6/9 | Y60M+K65V |
| 20 µM | 2/3 | 6/9 | D31R+G59A+V64A |
| 160 µM | 2/3 | 4/9 | I58F+K65V+V99A |
| 1.2 mM | 1/3 | 0/9 | M34T+I51W+A61Y |
| 7.0 µM | 2/3 | 0/9 | W53S+G102F+Y105A |
| 26 µM | 3/3 | 3/9 | D31G+I51L+I58Y |
| nd | 0/3 | 0/9 | N54D+G100Y+Y108P |
| 7.8 µM | 1/3 | 2/9 | S57E+G103R+G104Y |
| 71 µM | 1/3 | 0/9 | V99A+G104A+D107W |
| nd | 0/3 | 1/9 | I58M+K65N+G102A |
| 10 µM | 2/3 | 5/9 | N54G+V99A+G100W |
| 10 µM | 3/3 | 2/9 | S52M+G103R+Y105D |